The chains behind the UniProt entries cited, without tags or fusion partners. Residues count along the entry.
UniProt Q9NRD8, 26-1548: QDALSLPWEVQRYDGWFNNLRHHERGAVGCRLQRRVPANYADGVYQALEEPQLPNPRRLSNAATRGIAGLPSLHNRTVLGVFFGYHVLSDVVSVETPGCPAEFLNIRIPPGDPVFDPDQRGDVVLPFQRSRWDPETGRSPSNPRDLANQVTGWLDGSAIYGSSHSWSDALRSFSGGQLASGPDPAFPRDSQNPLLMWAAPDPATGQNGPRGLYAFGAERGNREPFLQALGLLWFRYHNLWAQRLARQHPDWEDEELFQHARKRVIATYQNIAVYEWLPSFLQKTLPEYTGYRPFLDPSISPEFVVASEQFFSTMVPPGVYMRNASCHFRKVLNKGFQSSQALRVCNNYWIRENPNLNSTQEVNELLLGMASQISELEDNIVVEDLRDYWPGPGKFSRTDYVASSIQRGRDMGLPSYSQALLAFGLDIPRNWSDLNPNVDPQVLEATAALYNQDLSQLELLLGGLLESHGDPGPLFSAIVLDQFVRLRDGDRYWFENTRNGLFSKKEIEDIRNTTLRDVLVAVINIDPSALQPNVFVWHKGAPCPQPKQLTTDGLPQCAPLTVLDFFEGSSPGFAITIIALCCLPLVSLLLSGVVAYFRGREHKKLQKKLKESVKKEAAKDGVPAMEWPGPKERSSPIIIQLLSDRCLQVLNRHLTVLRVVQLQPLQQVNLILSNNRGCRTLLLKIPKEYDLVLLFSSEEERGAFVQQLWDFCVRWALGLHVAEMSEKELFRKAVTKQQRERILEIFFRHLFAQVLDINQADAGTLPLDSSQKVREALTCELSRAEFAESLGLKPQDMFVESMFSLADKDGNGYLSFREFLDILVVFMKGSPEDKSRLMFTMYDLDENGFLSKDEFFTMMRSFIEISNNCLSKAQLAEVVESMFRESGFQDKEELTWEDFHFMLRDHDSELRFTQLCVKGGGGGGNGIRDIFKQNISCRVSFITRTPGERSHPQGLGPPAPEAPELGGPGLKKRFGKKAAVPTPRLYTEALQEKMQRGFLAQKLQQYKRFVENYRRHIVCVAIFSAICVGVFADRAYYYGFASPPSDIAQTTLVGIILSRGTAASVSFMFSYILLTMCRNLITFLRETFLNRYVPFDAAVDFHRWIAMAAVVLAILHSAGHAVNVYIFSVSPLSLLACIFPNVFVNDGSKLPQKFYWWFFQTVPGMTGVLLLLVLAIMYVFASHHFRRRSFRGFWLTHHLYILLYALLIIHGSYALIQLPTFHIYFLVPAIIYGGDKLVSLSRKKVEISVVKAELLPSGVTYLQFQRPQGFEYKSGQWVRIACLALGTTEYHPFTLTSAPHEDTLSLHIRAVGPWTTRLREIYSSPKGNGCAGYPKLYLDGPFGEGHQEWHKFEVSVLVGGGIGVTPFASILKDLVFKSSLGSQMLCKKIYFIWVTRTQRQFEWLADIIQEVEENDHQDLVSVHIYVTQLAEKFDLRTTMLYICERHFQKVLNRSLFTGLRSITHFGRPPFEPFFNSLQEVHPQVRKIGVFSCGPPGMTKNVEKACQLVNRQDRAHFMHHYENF

According to US10131659B2, “Iodonium analogs as inhibitors of NADPH oxidases and other flavin dehydrogenases; formulations thereof; and uses thereof” (priority 2014, dated 2018):

Assays:
Format in all cases: cell-based
NOX4 = molecular target: T1, NOX4 (Homo sapiens, UniProt Q9NPH5); assay: NOX4-dependent H2O2 production, Amplex Red assay in reconstituted HEK293 cells; details: exposure for 30 min
T1 construct: expressed in transfected cells; host or cells: HEK293
T1 sequence (Q9NPH5 1-578): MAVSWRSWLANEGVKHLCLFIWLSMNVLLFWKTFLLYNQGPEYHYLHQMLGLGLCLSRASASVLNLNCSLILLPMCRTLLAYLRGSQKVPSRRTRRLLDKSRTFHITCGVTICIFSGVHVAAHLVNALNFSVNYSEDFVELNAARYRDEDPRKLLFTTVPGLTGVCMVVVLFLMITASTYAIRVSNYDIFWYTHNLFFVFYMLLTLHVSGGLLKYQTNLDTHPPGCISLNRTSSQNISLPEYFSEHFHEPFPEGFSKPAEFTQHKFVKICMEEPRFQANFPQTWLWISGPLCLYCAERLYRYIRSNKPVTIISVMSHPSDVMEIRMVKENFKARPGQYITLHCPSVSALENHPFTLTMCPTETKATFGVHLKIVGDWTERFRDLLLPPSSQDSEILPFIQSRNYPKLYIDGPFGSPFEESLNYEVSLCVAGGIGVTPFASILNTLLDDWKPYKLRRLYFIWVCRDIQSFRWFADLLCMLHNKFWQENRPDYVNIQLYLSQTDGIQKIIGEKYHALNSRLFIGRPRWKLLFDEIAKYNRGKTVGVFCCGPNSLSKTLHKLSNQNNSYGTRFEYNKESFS
T1 sequence (P13498 2-195 partner limits assumed): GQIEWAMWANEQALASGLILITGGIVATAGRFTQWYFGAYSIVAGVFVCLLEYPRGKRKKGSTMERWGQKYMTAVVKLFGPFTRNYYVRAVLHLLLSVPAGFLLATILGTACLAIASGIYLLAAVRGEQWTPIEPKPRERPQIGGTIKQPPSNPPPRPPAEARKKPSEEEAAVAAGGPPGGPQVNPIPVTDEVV
Protocol: (§1) To evaluate compound specificity, a luminescence assay for O2.^− was used with HEK293 cells expressing all components of the NOX1 complex; fully differentiated HL-60 cells expressing active NOX2; and UACC257 melanoma cells that exclusively express active NOX5. H2O2 was measured by Amplex Red assay to determine NOX4 or Duox2 activity in fully reconstituted HEK293 cells. The method conducted was similar to the approach disclosed in Jaquet et al in Brit J. Pharmacology 164: 507-520, 2011 using somewhat different cell models for the NOX isoforms and we studied Duox2 in our own cell model.

NOX5 = molecular target: T2, NOX5 (Homo sapiens, UniProt Q96PH1); assay: NOX5-dependent ROS production, luminescence assay for O2.- in UACC257 melanoma cells; details: exposure for 30 min
T2 sequence (Q96PH1 1-765): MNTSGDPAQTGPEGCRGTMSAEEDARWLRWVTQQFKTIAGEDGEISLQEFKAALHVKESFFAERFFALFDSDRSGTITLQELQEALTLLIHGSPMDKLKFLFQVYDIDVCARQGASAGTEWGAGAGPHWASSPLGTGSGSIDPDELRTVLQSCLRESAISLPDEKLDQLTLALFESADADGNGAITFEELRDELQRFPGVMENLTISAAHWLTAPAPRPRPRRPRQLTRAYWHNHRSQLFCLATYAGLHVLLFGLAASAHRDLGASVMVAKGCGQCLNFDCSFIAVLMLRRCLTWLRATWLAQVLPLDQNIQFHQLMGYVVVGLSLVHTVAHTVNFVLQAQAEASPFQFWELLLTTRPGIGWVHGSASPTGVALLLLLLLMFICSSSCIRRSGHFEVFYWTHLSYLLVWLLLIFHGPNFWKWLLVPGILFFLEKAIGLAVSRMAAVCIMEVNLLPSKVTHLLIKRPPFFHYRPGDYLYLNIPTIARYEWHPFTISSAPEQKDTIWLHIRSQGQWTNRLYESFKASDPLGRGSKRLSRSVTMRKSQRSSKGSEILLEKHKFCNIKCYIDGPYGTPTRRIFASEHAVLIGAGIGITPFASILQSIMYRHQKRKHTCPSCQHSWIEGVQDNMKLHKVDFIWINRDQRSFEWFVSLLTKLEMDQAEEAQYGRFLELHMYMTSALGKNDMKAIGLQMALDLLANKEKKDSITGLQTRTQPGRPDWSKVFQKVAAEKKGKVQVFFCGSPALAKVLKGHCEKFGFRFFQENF

NOX1/A1/O1 = molecular target: T3, NOX1/A1/O1 (Homo sapiens, UniProt Q9Y5S8); assay: NOX1-dependent ROS production, luminescence assay for O2.- in HEK293 cells expressing the NOX1 complex; details: exposure for 30 min
T3 construct: expressed in transfected cells; host or cells: HEK293

DUOX2/A2 = DUOX2/A2 (Homo sapiens, UniProt Q9NRD8); assay: DUOX2-dependent H2O2 production, Amplex Red assay in reconstituted HEK293 cells; details: 3-5 independent experiments; read-out: IC50 ± SE, DUOX2/A2 HEK 293
Protocol: as §1

SMILES: c1ccc2c(c1)[I+]c1ccccc1-2 [Compound 13, Diphenyleneiodonium chloride, reference compound]
- IC50 (NOX4; 3-5 independent experiments, read-out: IC50 ± SE, NOX4 HEK293): 880 ± 214 nM
- IC50 toward NOX4 (NOX4): low nM
- IC50 (NOX5; 3-5 independent experiments, read-out: IC50 ± SE, NOX5 UACC-257): 42 ± 27 nM
- IC50 toward NOX5 (NOX5): low nM
- IC50 (NOX1/A1/O1; 3-5 independent experiments, read-out: IC50 ± SE, NOX1/A1/O1 HEK 293): 233 ± 122 nM
- IC50 toward NOX1 (NOX1/A1/O1): low nM
- IC50 (DUOX2/A2): 6490 ± 1630 nM
